Assay results: patent publication US9139585B2 (Merck Sharp & Dohme Corp., priority 2011, dated 2015)

The chains behind the UniProt entries cited, without tags or fusion partners.
UniProt P48048, whole entry, species assumed: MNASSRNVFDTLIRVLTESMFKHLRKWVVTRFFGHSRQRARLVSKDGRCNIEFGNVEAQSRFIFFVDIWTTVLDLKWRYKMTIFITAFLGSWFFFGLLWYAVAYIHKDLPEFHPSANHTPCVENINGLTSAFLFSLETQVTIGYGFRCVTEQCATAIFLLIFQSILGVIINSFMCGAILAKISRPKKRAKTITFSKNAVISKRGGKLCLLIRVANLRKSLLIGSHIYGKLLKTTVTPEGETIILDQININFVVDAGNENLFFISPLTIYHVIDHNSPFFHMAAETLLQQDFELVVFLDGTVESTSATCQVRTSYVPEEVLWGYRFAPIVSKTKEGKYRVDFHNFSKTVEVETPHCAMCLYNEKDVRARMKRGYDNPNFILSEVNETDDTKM

Experiments:
hROMK (hKir1.1) = hROMK (hKir1.1) (Homo sapiens (Human), UniProt P48048); assay: Thallium Flux Assay (ROMK channel functional thallium flux, FLIPR-Tetra); format: cell-based; details: HEK293 cells stably expressing hROMK (hKir1.1)
Protocol: Another ROMK functional assay makes use of the ability of thallium to permeate through open ROMK channels and increase the fluorescence of a dye previously loaded into the cells. Under control conditions, cells loaded with dye and exposed to thallium-containing medium display a time-dependent increase in fluorescence, the rate of which depends on number of functional channels. When cells are incubated in the presence of a channel inhibitor, the increase in fluorescence is attenuated in a concentration-dependent manner, and IC50 values of inhibition by compounds can be accurately determined. This assay has been established with cell lines expressing either human, or rat ROMK channels, and operates in 384-well format.
HEK293 cells stably expressing hROMK (hKir1.1) were grown at 37° C. in a 10% CO2 humidified incubator in complete growth media: Dulbecco's Modified Eagle Medium supplemented with non-essential amino acids, Penicillin/Streptomycin/Glutamine, G418 and FBS. At >80% confluency, the media was aspirated from the flask and the sample was rinsed with 10 ml Calcium/Magnesium-free PBS. […] To dislodge the cell, the side of the flask was gently banged with a hand. The cells were triturated completely and then transferred to 25 ml complete media. The sample was then centrifuged at 1,500 rpm for 6 minutes, followed by resuspension in complete growth media and then cell concentration was determined. […] Under ideal growth conditions and appropriate tissue culture practices, this cell line is stable for 40-45 passages.
FluxOR Kit Components (Invitrogen F10017)
• FluxOR™ Reagent (Component A) • FluxOR™ Assay Buffer (Component B)—10× Concentrate • PowerLoad™ Concentrate (Component C)—100× Concentrate • Probenecid (Component D)—Lyophilized sample is kept at −20° C. Water soluble, 100× after solubilization in 1 ml water. […] Store at 4° C. • Thallium sulfate (Tl2SO4) Concentrate (Component G)—50 mM in water. Store at 4° C. • DMSO (dimethyl sulfoxide, Component H)—1 ml (100%) Reagent Preparation— FluxOR Working Solutions • 1000× FluxOR™ Reagent: Reconstitute a vial of component A in 100 μl DMSO; Mix well; Store 10 μl aliquots at −20° C. • 1× FluxOR™ Assay Buffer: Dilute Component B 10-fold with water; Adjust pH to 7.4 with Hepes/NaOH; Filter and store at 4° C. • Probenecid/Assay Buffer: 100 ml of 1× FluxOR™ Assay Buffer; 1 ml of reconstituted component D; Store at 4° C. • Loading Buffer (per microplate): 10 μl 1000× FluxOR™ Reagent; 100 μl component C; 10 ml Probenecid/Assay Buffer • Compound Buffer (per microplate): 20 ml Probenecid/Assay Buffer; 0.3 mM ouabain (10 mM ouabain in water can be stored in amber bottle/aluminum foil at room temperature);
Test compound • 1× FluxOR™ Chloride-Free Buffer: Prepare 1× working solution in water. Can be stored at room temperature • Stimulant Buffer (prepared at 5× final concentration in 1× FluxOR™ Chloride-Free Buffer): 7.5 mM Thallium sulfate and 0.75 mM Potassium sulfate (to give a final assay concentration of 3 mM Thallium/0.3 mM Potassium). Store at 4° C. when not in use. If kept sterile, this solution is good for months. Assay Protocol—
The ROMK channel functional thallium flux assay is performed in 384 wells, using the FLIPR-Tetra instrument. HEK-hKir1.1 cells are seeded in Poly-D-Lysine microplates and kept in a 37° C.-10% CO2 incubator overnight. On the day of the experiment, the growth media is replaced with the FluxOR™ reagent loading buffer and incubated, protected from light, at ambient temperature (23-25° C.) for 90 min. The loading buffer is replaced with assay buffer±test compound followed by 30 min incubation at ambient temperature, where the Thallium/Potassium stimulant is added to the microplate.
• 1. Seed HEK-hKir1.1 cells (50 μl at 20,000 cells/well) in 384-well PDL coated Microplates • 2. Allow cells to adhere overnight in humidified 37° C./10% CO2 incubator • 3. Completely remove cell growth media from microplate and replace with 25 μl loading buffer • 4.

Kir1.1 (ROMK1) = Kir1.1 (ROMK1) (Homo sapiens (Human), UniProt P48048); assay: Electrophysiology Assay (whole cell voltage clamp, IonWorks Quattro); format: cell-based; details: Chinese hamster ovary cells stably expressing Kir1.1; block during voltage step to 0 mV; read-out: EP Assay IC50
Source text: Several assays may be used to measure functional inhibition of the ROMK channel by compounds of the instant invention. One assay that can be used is an electrophysiology assay that measures the electrical current that is generated as potassium permeates through the channel.
Block of Kir1.1 (ROMK1) currents was examined by whole cell voltage clamp (Hamill et. al. Pfluegers Archives 391:85-100 (1981)) using the IonWorks® Quattro automated electrophysiology platform (Molecular Devices, Sunnyvale, Calif.). Chinese hamster ovary cells stably expressing Kir1.1 channels were maintained in T-75 flasks in cell culture media in a humidified 10% CO2 incubator at 37° C. Prior to an experiment, Kir1.1 expression was induced by overnight incubation with 1 mM sodium butyrate. On the day of the experiment, cells were dissociated with 2.5 ml of Versene™ (Invitrogen 15040-066) for approximately 6 minutes at 37° C. and suspended in 10 ml of bath solution containing (in mM): 150 NaCl, 10 KCl, 2.7 CaCl2, 0.5 MgCl2, 5 HEPES, pH 7.4. After centrifugation, the cell pellet was resuspended in approximately 4.0 ml of bath solution and placed in the IonWorks® instrument. The intracellular solution consisted of (in mM): 80 K gluconate, 40 KCl, 20 KF, 3.2 MgCl2, 3 EGTA, 5 Hepes, pH 7.4. Electrical access to the cytoplasm was achieved by perforation in 0.13 mg/ml amphotericin B for 4 minutes. Amphotericin B (Sigma A-4888) was prepared as a 40 mg/ml solution in DMSO.
Voltage protocols and current recordings were performed using the IonWorks® HT software/hardware system. Currents were sampled at 1 kHz. No correction for liquid junction potentials was used. The test pulse, consisting of a 100 ms step to 0 mV from a holding potential of −70 mV, followed by a 100 ms voltage ramp from −70 mV to +70 mV, was applied before and after a 6 minutes compound incubation period. Test compounds were prepared by diluting DMSO stock solutions into the bath solution at 3× the final concentration and placed in the instrument in 96-well polypropylene plates. Current amplitudes were measured using the IonWorks® software. To assess compound potency, the fractional block during the voltage step to 0 mV was calculated in Microsoft® Excel (Microsoft, Redmond, Calif.), and dose-response curves were fitted with Igor Pro 4.0 (WaveMetrics, Lake Oswego, Oreg.).

| SMILES | IC50 (hROMK (hKir1.1)) [nM] | IC50 (Kir1.1 (ROMK1)) [nM] |
| --- | --- | --- |
| Cc1c([C@@H](O)CN2C[C@@H]3C[C@H]2CN3CC(O)c2ccc3c(c2)C[C@H](C)OC3=O)ccc2c1COC2=O (single isomer, unassigned) [Example 40A] | 36.2 | 140 |
| Cc1c([C@@H](O)CN2C[C@@H]3C[C@H]2CN3CC(O)c2ccc3c(c2)C[C@H](C)OC3=O)ccc2c1COC2=O (single isomer, unassigned) [Example 40B] | 73.9 |  |
| Cc1c([C@@H](O)CN2C[C@H]3C[C@@H]2CN3C[C@H](O)c2ccc3c(c2)C[C@H](C)OC3=O)ccc2c1COC2=O (single isomer, unassigned) [Example 42B] | 45.1 | 116 |
| Cc1cc(S(=O)(=O)N2C[C@@H]3C[C@H]2CN3C[C@H](O)c2ccc3c(c2C)COC3=O)ccc1-n1cnnn1 [Example 14, 5-((R)-1-Hydroxy-2-((1S,4S)-5-(3-methyl-4-(1H-tetrazol-1-yl)phenylsulfonyl)-2,5-diazabicyclo[2.2.1]heptan-2-yl)ethyl)-4-methylisobenzofuran-1(3H)-one] | 216 | 270 |
| Cc1c([C@@H](O)CN2C[C@@H]3C[C@H]2CN3C[C@H](O)c2ccc3c(c2)C[C@@H](C)OC3=O)ccc2c1COC2=O (single isomer, unassigned) [Example 39B] | 938 |  |
| Cc1c([C@@H](O)CN2C[C@H]3C[C@@H]2CN3C[C@H](O)c2ccc3c(c2)C[C@@H](C)OC3=O)ccc2c1COC2=O (single isomer, unassigned) [Example 41A] | 66.7 |  |
| Cc1c([C@@H](O)CN2C[C@H]3C[C@@H]2CN3C[C@H](O)c2ccc3c(c2)C[C@H](C)OC3=O)ccc2c1COC2=O (single isomer, unassigned) [Example 42A] | 175 | 78 |
| Cc1c([C@@H](O)CN2C[C@@H]3C[C@H]2CN3C[C@H](O)c2ccc3c(c2)C[C@@H](C)OC3=O)ccc2c1COC2=O (single isomer, unassigned) [Example 39A] | 446 | 150 |
| Cc1c([C@@H](O)CN2C[C@H]3C[C@@H]2CN3C[C@H](O)c2ccc3c(c2)C[C@@H](C)OC3=O)ccc2c1COC2=O (single isomer, unassigned) [Example 41B] | 33.3 |  |
